Antibody variant affinities, Ab-14 light chain, assay B

Values reported by Li et al. 2023, doi:10.1038/s41467-023-39022-2 (FLAb copy).

Target peptide (SARS-CoV-2 spike, HR2 region): PDVDLGDISGINAS

Ab-14 is the parent antibody, in scFv form: VH, then the linker GGGGSGGGGSGGGGS, then VL. The heavy chain is unchanged in all variants.
VH: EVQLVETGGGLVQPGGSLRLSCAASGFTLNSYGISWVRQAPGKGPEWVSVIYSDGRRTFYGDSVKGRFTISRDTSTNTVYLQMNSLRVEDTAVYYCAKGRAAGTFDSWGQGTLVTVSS
VL: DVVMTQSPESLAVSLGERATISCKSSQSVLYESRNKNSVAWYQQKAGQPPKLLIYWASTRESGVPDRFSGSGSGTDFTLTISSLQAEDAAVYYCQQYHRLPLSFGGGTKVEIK

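The starting antibody came from a phage panning campaign against this peptide. The variants were designed computationally from a first round of random CDR variants and then made and measured. Several design methods are mixed in this list. The scFvs were displayed on barcoded MATa yeast, the peptide on MATalpha yeast. The frequency of each diploid, read from paired DNA barcodes, reflects how well the two displayed proteins bind. Read counts were normalised to the haploid input and turned into Kd by a linear fit to BCL2-family pairs of known affinity, for each replicate. Each pool was mated in six replicate cultures.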

The parent's light chain CDRs are KSSQSVLYESRNKNSVA, WASTRES, QQYHRLPLS; each variant's own CDRs replace them letter for letter.
Variants here have at most six changes.
Values are log10 of the apparent Kd in nM; lower means stronger binding.
The mean shown is taken over the replicates in which the pair was detected.
An entry "no signal" has no value in the source: the pair was not observed among the diploids in any replicate. This suggests poor binding but is not conclusive.
Of ten entries with the parent sequence, four were seen in most replicates (averages 0.34 to 2.37), three in one and three in none, so single entries are noisy.
Three control strains display no target. For all light chain designs, 4% of the pairings with them gave a signal, with a median of 2.64 and one signal in twenty below 1.59, so weak values seen in few replicates may be background.
A sequence measured in both rounds can read differently, since the two assays cover different ranges.
The authors averaged sequences with at least three values out of six and counted those with two or fewer as poor binders.

With KSSQSVLYESRNKNSVA | RASVRLD | QQYHRLPLS the result was 1.18 (5 of 6 replicates). With KSPQSQEYESRNKNSVA | HASTRED | QQYHCLPLS the result was 0.16 (6 of 6 replicates). With KLRTSVPYESRNKNSVA | SASTRES | QQYHRLPLS the result was -0.01 (6 of 6 replicates). For NSLPSVLYESRNKNSVA | NASTRES | QQYMRLPLS, the assay gave -0.11 (6 of 6 replicates). The variant KQSQSVPYESRNKNSVA | DASTRES | QQYHRLPLD showed 1.20 (6 of 6 replicates). With KLSQSFLYESRNKNSVA | EASTRES | QAYHRLPLS the result was 0.70 (6 of 6 replicates). With KSSQSVLYEERNDISVA | WASLREG | QQYQRLPLS the result was no signal (0 of 6 replicates). The variant KSGQGVLQESRNWNSVA | GASTRES | QQYHRLPLS showed -0.14 (6 of 6 replicates). With KSSPSVLYESRNKNSVA | GASTRES | QQYNRLPLS the result was -0.33 (6 of 6 replicates).

For KLSMSELYESRNKNSVA | NASTRES | QQYHRLPLS, the assay gave -0.48 (6 of 6 replicates). With KSSQSVLAESRNKNSVA | QASTRES | QQYHRKPLS the result was no signal (0 of 6 replicates). The variant KISQSVLYASRNSNSVA | GASTRES | QAYHRLPLS gave 0.54 (6 of 6 replicates). The variant KISQSDLYESRNKNSVA | HASTRES | QQYHRLPLS showed -0.11 (6 of 6 replicates). The variant HLSQSVLYESRNKNSVA | EASTRES | QQYHRLPLS showed -0.42 (6 of 6 replicates). For KSQQSVLYESRNKNNVA | HASTRED | QQYERLPLS, the assay gave -0.49 (6 of 6 replicates). The variant KSPQSVLYESRNKNSVA | DASTRED | QSYHRLPLS showed -0.16 (6 of 6 replicates). The variant KSSQSVLYEQRNKNSVA | WASTRES | QQYHRLPLS showed no signal (0 of 6 replicates). The variant KLQQSWEYESRNKNSVA | HASTRED | QQYHRLPLS gave 0.38 (6 of 6 replicates).

The variant KSSQSVLYESRNKNSVA | WASTRES | QQYHRDPLS showed no signal (0 of 6 replicates). For KSSISFLIESRNKNSVA | EASTRES | QQYHRLPLS, the assay gave -0.08 (6 of 6 replicates). The variant KLSQSVLYESRNKNSVA | NASQREM | QQYHRLPLS gave -0.36 (6 of 6 replicates). For KLAQSTKYESRNQNSVA | WASTRES | QQYHRLPLS, the assay gave 0.64 (6 of 6 replicates). The variant FLSQSVLYESRNKNSVA | NASTRED | QQYHRLPLS gave -0.24 (6 of 6 replicates). The variant KYSQSVLYEARNKNSVA | WASTRES | QQYHRLPLS showed 2.28 (3 of 6 replicates). For ASSQSVLYESRNKNSVA | HIGERES | QQYHRWPLS, the assay gave no signal (0 of 6 replicates). The variant HLSQSVLYESRNKNSVA | NASYRES | QQYHRLPLS gave 0.11 (6 of 6 replicates). With KSSQSSLYESRNKNSVA | SASTRES | QQYHRLHLE the result was 0.47 (6 of 6 replicates).

The variant KLSQSVLYESRNFNNVA | DASTRES | QQYHRLPLS gave -0.40 (6 of 6 replicates). With KLQQSNLYESRNKNSVA | NASQRLS | QQYHRLPLS the result was -0.07 (6 of 6 replicates). The variant KFEQSVLYESRNKNSVA | NASTREQ | QQYHRLPLS gave -0.17 (6 of 6 replicates). The variant KSSQSWLYESRNKNSVA | HASTRES | QQYARLPLS showed 0.09 (6 of 6 replicates). The variant KLYQSVLYESRNKNSVA | NASTREV | QQYHRLPLS showed -0.05 (6 of 6 replicates). For KSSQSVLYESRNKNSVA | SASERYS | QQYHRLPLS, the assay gave 0.29 (6 of 6 replicates). For KSSQSVLYEKHNKNSVA | EASTRES | QQYHRLPLS, the assay gave 1.16 (6 of 6 replicates). For KLSQTVLYESRNKNSVA | GASTREC | QQYHRLPLS, the assay gave 0.90 (6 of 6 replicates). With KSSQSVLDESRNKNAVA | SASTRES | QQYHRLPLS the result was 0.32 (6 of 6 replicates).

The variant KSSFSVLYESRNKNSVA | WASTRES | QQYHRLPLS showed 1.58 (1 of 6 replicates). The variant KLSQSVLYESRVKNNVA | GASTRES | QQYHRLPLS showed 0.05 (6 of 6 replicates). With KSSESVTYESRNKNSVA | WGSTRES | QQYHRLPLS the result was 0.94 (6 of 6 replicates). For KSSQSVLYESRNKNSVA | YASTRVS | QQYHRLPLS, the assay gave 1.75 (6 of 6 replicates). For YLSQSQLYESRNKNSVA | NASTRES | QQYHRLPLS, the assay gave 0.13 (6 of 6 replicates). With KLMQSVLYESRNKNNVA | GASTRES | QQYHRLPLS the result was -0.47 (6 of 6 replicates). For KSSQPVLYESRNKNSVA | WASTRES | QQYHRLPLS, the assay gave 2.59 (3 of 6 replicates). The variant KSSEPVLYESLNKNSVA | WASTRES | QQYHRLPLS showed 1.16 (6 of 6 replicates). The variant KSSQSVDYEGREKNSVA | WASTRES | QQYHCLPLS gave no signal (0 of 6 replicates).

The opening 3 entries, copied out:

CDR-L1	CDR-L2	CDR-L3	mean, log10 nM	seen in
KSSQSVLYESRNKNSVA	RASVRLD	QQYHRLPLS	1.18	5 of 6
KSPQSQEYESRNKNSVA	HASTRED	QQYHCLPLS	0.16	6 of 6
KLRTSVPYESRNKNSVA	SASTRES	QQYHRLPLS	-0.01	6 of 6